Publication PMC8234231, “In Vitro Inhibition of Renal OCT2 and MATE1 Secretion by Antiemetic Drugs” (International Journal of Molecular Sciences, 2021)

How the values were obtained:
MATE1 = biological target: T1, MATE1 (Homo sapiens, UniProt Q96FL8); assay: Inhibition of ASP+ uptake in HEK293 cells overexpressing MATE1; format: cell-based; settings: HEK293-MATE1, ASP+ 10 μM, 1 min, 37 °C; Avg ± SE (n = 3)
T1 construct: expressed in transfected cells; gift of Dr. Kathy Giacomini, UCSF
T1 sequence (Q96FL8 1-570): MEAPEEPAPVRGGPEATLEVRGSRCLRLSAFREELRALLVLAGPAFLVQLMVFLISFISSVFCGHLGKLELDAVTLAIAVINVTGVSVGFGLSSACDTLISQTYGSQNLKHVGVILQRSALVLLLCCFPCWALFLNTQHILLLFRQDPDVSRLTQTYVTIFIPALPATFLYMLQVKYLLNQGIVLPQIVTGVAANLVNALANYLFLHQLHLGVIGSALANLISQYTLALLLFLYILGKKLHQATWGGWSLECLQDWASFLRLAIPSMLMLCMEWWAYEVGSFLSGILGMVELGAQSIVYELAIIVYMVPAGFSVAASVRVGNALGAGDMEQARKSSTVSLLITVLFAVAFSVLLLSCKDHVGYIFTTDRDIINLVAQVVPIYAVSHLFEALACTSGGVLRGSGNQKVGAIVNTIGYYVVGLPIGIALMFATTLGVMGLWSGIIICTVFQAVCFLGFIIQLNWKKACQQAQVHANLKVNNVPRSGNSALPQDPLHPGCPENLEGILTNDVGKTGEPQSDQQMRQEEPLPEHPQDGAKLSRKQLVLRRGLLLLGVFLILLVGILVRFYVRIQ

OCT2 and MATE1 = assay: Inhibition of basolateral-to-apical transcellular transport of ASP+ in OCT2/MATE1 double-transfected MDCK cells (Transwell); settings: human, probe ASP+ (25 μM, basolateral chamber)

IC50 (MATE1) | SMILES | inhibition at 120 min, 20 μM (OCT2 and MATE1)
0.23 ± 0.2 µM | CN/C(=N/CCSCc1nc[nH]c1C)NC#N [Cimetidine] | –
0.1 ± 0.1 µM | Cc1nccn1CC1CCc2c(c3ccccc3n2C)C1=O (stereo not drawn) [Ondansetron] | –
– | Cc1cc2c(s1)Nc1ccccc1N=C2N1CCN(C)CC1 [olanzapine] | 28%
